{"sequences": {"note": "Chains of the proteins cited; added tags and fusions are not shown.", "UniProt P31645, whole entry, looked up": "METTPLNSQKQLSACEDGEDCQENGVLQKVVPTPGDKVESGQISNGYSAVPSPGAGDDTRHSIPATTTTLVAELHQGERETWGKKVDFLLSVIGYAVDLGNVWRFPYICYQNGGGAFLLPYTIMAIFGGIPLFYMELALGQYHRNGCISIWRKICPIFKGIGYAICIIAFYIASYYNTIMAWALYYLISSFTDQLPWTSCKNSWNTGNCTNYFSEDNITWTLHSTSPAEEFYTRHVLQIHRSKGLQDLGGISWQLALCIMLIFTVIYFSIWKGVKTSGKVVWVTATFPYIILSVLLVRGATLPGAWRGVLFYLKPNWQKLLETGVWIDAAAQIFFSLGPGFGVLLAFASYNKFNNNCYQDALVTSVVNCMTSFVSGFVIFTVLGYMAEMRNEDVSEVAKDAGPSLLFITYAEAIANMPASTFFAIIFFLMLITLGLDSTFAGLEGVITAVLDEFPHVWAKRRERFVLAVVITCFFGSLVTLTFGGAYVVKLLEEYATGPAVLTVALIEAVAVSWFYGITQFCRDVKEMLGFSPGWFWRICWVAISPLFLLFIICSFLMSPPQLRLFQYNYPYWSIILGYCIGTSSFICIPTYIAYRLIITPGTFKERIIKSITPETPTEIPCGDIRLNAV"}, "source": "ChEMBL document CHEMBL1136002", "about": "“Piperidine analogues of 1-[2-[bis(4-fluorophenyl)methoxy]ethyl]-4-(3-phenylpropyl)piperazine (GBR 12909): high affinity ligands for the dopamine transporter” (J Med Chem, 2002)", "target": "Sodium-dependent serotonin transporter (Homo sapiens, UniProt P31645)", "assay": "Ratio of IC50 value against Serotonin transporter to that of Dopamine transporter", "data": [{"compound": "Fc1ccc(C(OCCC2CCN(Cc3ccc4ccccc4c3)CC2)c2ccc(F)cc2)cc1", "values": [{"measurement": "Ratio", "result": 38}]}]}
